# Experimental data as given in PubChem BioAssay AID1304 (The Scripps Research Institute Molecular Screening Center, 2008).
# Amino acid sequences for entries named in this document (tags omitted).
# UniProt P25929, whole entry, looked up: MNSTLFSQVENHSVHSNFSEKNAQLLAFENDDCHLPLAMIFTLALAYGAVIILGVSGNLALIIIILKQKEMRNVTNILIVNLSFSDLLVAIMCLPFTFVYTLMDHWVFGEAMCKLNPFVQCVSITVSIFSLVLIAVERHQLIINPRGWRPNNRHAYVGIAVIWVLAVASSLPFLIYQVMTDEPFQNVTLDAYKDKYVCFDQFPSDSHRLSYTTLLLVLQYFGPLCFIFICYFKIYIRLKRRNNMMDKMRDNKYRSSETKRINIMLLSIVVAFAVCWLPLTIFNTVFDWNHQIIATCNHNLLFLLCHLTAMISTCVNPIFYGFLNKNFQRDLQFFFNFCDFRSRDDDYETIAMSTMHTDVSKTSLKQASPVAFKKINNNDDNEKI
# “And” between values parts separate entries of the source, which are not always exact repeats. Identical values can stand only once. This is a selection; strong and weak results do not stand in their true shares. The source made the active and inactive calls. Rule as the data show it: active = activation above about 33% (passing the limit was not always enough); inactive = the rest.
# Target: Neuropeptide Y receptor type 1 (Homo sapiens) (UniProt P25929)
# Assay: NPY-Y1 receptor potentiators or agonists, primary screen, cell-based (AID 1304);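 also: cells stimulated with NPY at EC10 then isoproterenol at EC100; 0% = low agonist plus stimulus and 100% = saturating agonist plus stimulus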
# Settings: NPY-Y1 expressing cells, potentiator/agonist activation; at 3.6 µM; active compounds read high
row,SMILES,activation
1,CCNC(=S)/N=C(\N)N[N+](=O)[O-],inactive: 9.94%
2,O=C(NC1CCS(=O)(=O)C1)NP(=S)(Oc1ccccc1)Oc1ccccc1 (stereo not given),inactive: -0.64%
3,CCOC(=O)NC(Sc1ccccc1)C(Cl)(Cl)Cl (stereo not given),inactive: 8.59%
4,Cc1ccc(NP(=O)(Oc2cccc(C)c2)Oc2cccc(C)c2)nc1,inactive: 7.78%
5,c1ccc(-c2nn[nH]n2)c(-c2nn[nH]n2)c1,inactive: 8.58%
6,O=c1c2cc([N+](=O)[O-])ccc2[nH]c2c([N+](=O)[O-])cc([N+](=O)[O-])cc12,inactive: 8.49%
7,CN(C)C(=O)Oc1noc2ccccc12,inactive: 3.45%
8,Cc1ccccc1OP(=O)(Nc1ccccn1)Oc1ccccc1C,inactive: 21.3%
9,Cc1ccc(OP(=O)(Nc2ccccn2)Oc2ccc(C)cc2)cc1,inactive: 4.88%
10,CC(=O)NC(SC(=S)N(CC(C)C)CC(C)C)C(Cl)(Cl)Cl (stereo not given),inactive: -8.05%
11,COC(=O)c1cc2c(s1)N=C(c1ccccc1)N(C)P2(=O)N1CCOCC1 (stereo not given),inactive: 20.6%
12,CCC(=O)N1C2C3N(C(=O)CC)C1C1N(C(=O)CC)C(C(N1C(=O)CC)N3C(=O)CC)N2C(=O)CC,inactive: 1.72%
13,CC(C)(C)C(=O)NC(Sc1ccccc1)C(Cl)(Cl)Cl (stereo not given),inactive: -0.16%
14,CCOc1ccc(C2=NCC(CBr)S2)cc1 (stereo not given),inactive: 7.81%
15,O=P1(Nc2nc3ccc(Cl)cc3s2)COc2ccccc2O1 (stereo not given),inactive: 3.57%
16,CC(=O)Nc1ccc(Oc2c([N+](=O)[O-])cc([N+](=O)[O-])cc2[N+](=O)[O-])cc1,inactive: -25.9%
17,CC(=O)Nc1ccc([As](=O)(O)O)c(O)c1,inactive: -2.61%
18,c1nnnn1CCn1cnnn1,inactive: 3.27%
19,CC(C)C(=O)NC(Sc1ccccc1)C(Cl)(Cl)Cl (stereo not given),inactive: -8.01%
20,O=P(Nc1nccs1)(c1ccccc1)c1ccccc1,inactive: -3.39%
21,O=P(Nc1nc2ccccc2s1)(c1ccccc1)c1ccccc1,inactive: 1.29%
22,O=P(Nc1ccccn1)(c1ccc(Br)cc1)c1ccc(Br)cc1,inactive: -26%

row,SMILES,activation
1,C(Cc1nn[nH]n1)Cc1nn[nH]n1,inactive: 12.4%
2,Nc1ccc([As](=O)(O)c2ccc([N+](=O)[O-])cc2)cc1,inactive: 16.1%
3,O=C(OC1CN2CCC1CC2)c1cccc(Cl)c1 (stereo not given),inactive: -13.3%
4,O=[N+]([O-])c1ncn(CCn2cnc([N+](=O)[O-])n2)n1,inactive: 16.1%
5,CC(=O)NC(SC(=S)N(C)C)C(Cl)(Cl)Cl (stereo not given),inactive: -1.11%
6,O=[As](O)(c1ccccc1)c1ccc(O)cc1,inactive: 0.01%
7,O=C(Nc1cc([As](=O)(O)O)ccc1O)c1ccccc1,inactive: 4.48%
8,O=[N+]([O-])c1cccc(NC2=NCC(CBr)S2)c1 (stereo not given),inactive: -3.61%
9,O=C(O)CNc1ccc([As](=O)(O)O)cc1,inactive: 8.57%
10,CC(C)(C)C(=O)NC(Sc1ccncn1)C(Cl)(Cl)Cl (stereo not given),inactive: 2.95%
11,O=[N+]([O-])c1ncn(CCn2ncnc2[N+](=O)[O-])n1,inactive: 3.43%
12,O=[N+]([O-])c1cccc2n[nH]nc12,inactive: -19.9%
13,CC(=O)N1C2C3N(C(C)=O)C1C1N(C(C)=O)C(C(N1C(C)=O)N3C(C)=O)N2C(C)=O,inactive: -6.43%
14,CCc1nc2c(n1)c1c(non1O)c1c2no[n+]1[O-],inactive: -37.3%
15,O=[N+]([O-])c1cc([N+](=O)[O-])c(CCNc2ccccc2)c([N+](=O)[O-])c1,inactive: 11.4%
16,Cc1ccc(NP(=O)(Oc2ccccc2)Oc2ccccc2)nc1,inactive: -4%
17,COc1ccc(C2=NCC(CBr)S2)cc1 (stereo not given),inactive: 4.3%
18,CN(C)C(=O)OCCc1n(C)cc[n+]1C,inactive: 19.8%
19,CC(C)=N/N=C(\N)N[N+](=O)[O-],inactive: 4.49%
20,CC1CCN(C(=O)Oc2c(Cl)cc(Cl)c3cccnc23)CC1,inactive: 5.53%
21,C[N+]1=C2C=CC=CC=C2SC12C([N+](=O)[O-])=CC([N+](=O)[O-])=C[C-]2[N+](=O)[O-] (stereo not given),inactive: 28.3%
22,Nc1ccc([As](=O)(O)c2ccc(N)cc2)cc1,inactive: 10.3%

row,SMILES,activation
1,CCN(/C(=N/P(=O)(N1CCOCC1)N1CCOCC1)N1CCOCC1)c1ccc(OC)cc1,inactive: -0.62%
2,Cc1ccc(OP(=O)(Nc2nccs2)Oc2ccc(C)cc2)cc1,inactive: 4.29%
3,COc1ccccc1OP(=O)(Nc1ccc(C)cn1)Oc1ccccc1OC,inactive: 12.9%
4,CN1CCCC(OC(=O)C(c2ccccc2)c2ccccc2)C1 (stereo not given),inactive: -17.9%
5,Clc1ccc(Cl)c(NC2=NCC(CBr)S2)c1 (stereo not given),inactive: 18.5%
6,NC(=O)c1cc([N+](=O)[O-])cc([N+](=O)[O-])c1N,inactive: -5.71%
7,Cc1ccc(N/C(=N/P(=O)(N2CCOCC2)N2CCOCC2)N2CCOCC2)cc1,inactive: 6.83%
8,Nc1cc(N)c2nonc2c1[N+](=O)[O-],inactive: 9.44%
9,CC(C)CC(=O)NC(Sc1ccc(Cl)cc1)C(Cl)(Cl)Cl (stereo not given),inactive: 18.3%
10,O=C(NC(Sc1ccncn1)C(Cl)(Cl)Cl)c1ccccc1 (stereo not given),inactive: -10.1%
11,Cc1c2non([O-])c-2c(C)[n+](=O)[n+]1[O-],inactive: 19.4%
12,Oc1ccccc1CNc1ccccn1,inactive: 15.6%
13,Cc1ccc(NP(=O)(Oc2ccccc2F)Oc2ccccc2F)nc1,inactive: 18.4%
14,Cc1cc(SC(NC(=O)c2ccc(F)cc2)C(Cl)(Cl)Cl)ncn1 (stereo not given),inactive: 2.97%
15,CCOP(=O)(Nc1ccccc1)OCC,inactive: 15.6% and inactive: 10.8%
16,CC(=O)Nc1ccc([As](=O)(O)O)cc1,inactive: 7.52%
17,O=C(O)c1ccccc1[As](=O)(O)O,inactive: -1%
18,O=P(Nc1nc2ccc(Cl)cc2s1)(c1ccccc1)c1ccccc1,inactive: 14.7%
19,CCN(N=Nc1nonc1N)c1nonc1N,inactive: -3.29%
20,Nc1cccc2ccc([As](=O)(O)O)cc12,inactive: 12.8%
21,Cc1ccc2nc3c(c(C)c2c1)CC(C(Cl)Cl)S3 (stereo not given),inactive: -19.7%
